ChEMBL document CHEMBL4033753, “Study of para-Quinone Methide Precursors toward the Realkylation of Aged Acetylcholinesterase” (2017)
Where “and” joins values, the source holds several entries; their conditions need not be identical. Identical values can stand only once. Calls of active or inactive are those of the source. The rule behind the calls is not given here.

How the values were obtained:
[1] = Induction of alkylation of 4-methylbenzenethiol after 3 hrs by UV-vis spectroscopy analysis relative to control
[2] = Induction of alkylation of piperidine after 3 hrs by UV-vis spectroscopy analysis relative to control
[3] = Induction of alkylation of benzyl alcohol after 3 hrs by UV-vis spectroscopy analysis relative to control
[4] = Induction of alkylation of pyrrolidine after 3 hrs by UV-vis spectroscopy analysis
[5] = Induction of alkylation of phosphonate model in water assessed as 4-hydroxy-3-methoxybenzyl 4-nitrophenyl methylphosphonate formation at 100 degC after 3 hrs by tandem HPLC/ESI-MSTOF analysis
[6] = Induction of alkylation of phosphonate model in water assessed as 4-hydroxy-3-methoxybenzyl hydrogen methylphosphonate formation at 100 degC after 3 hrs by tandem HPLC/ESI-MSTOF analysis
[7] = Induction of alkylation of phosphonate model in water assessed as 4-(hydroxymethyl)-2-methoxyphenol formation at 100 degC after 3 hrs by tandem HPLC/ESI-MSTOF analysis
[8] = Induction of alkylation of phosphonate model assessed as 4-hydroxy-3-methoxybenzyl 4-nitrophenyl methylphosphonate formation by 31P NMR spectroscopy analysis
[9] = Induction of alkylation of phosphonate model in water assessed as 4-nitrophenyl hydrogen methylphosphonate formation at 100 degC after 3 hrs by tandem HPLC/ESI-MSTOF analysis
[10] = Induction of alkylation of phosphonate model assessed as 4-nitrophenyl hydrogen methylphosphonate formation by 31P NMR spectroscopy analysis
[11] = Induction of alkylation of phosphonate model assessed as methylphosphonic acid formation by 31P NMR spectroscopy analysis
[12] = Induction of alkylation of phosphonate model assessed as 4-hydroxy-3-methoxybenzyl hydrogen methylphosphonate formation by 31P NMR spectroscopy analysis
[13] = Induction of alkylation of phosphonate model in water assessed as 4-nitrophenol formation at 100 degC after 3 hrs by tandem HPLC/ESI-MSTOF analysis

With `COc1cc(CN2CCOCC2)ccc1O` the Activity [1] was 84% and 83%, the Activity [2] was 69% and 79% and the Activity [3] was 16% and 13%.
For `COc1cc(CN2CCCC2)ccc1O`, the Activity [1] was 83% and 87%, the Activity [2] was 78% and 77% and the Activity [3] was 12% and 8%.
In the case of `COc1cc(CN2CCCCC2)ccc1O`, the Activity [4] is reported as 81%, the Activity [1] is reported as 85% and 83% and the Activity [3] is reported as 10% and 11%.
For `COc1cc(CN(C)C)ccc1O`, the Activity [5] was “Active”, the Activity [6] was “Active” and the Activity [7] was “Active”. The Activity [8] was “Active”, the Activity [9] was “Active” and the Activity [10] was 25.1 ppm. For the same compound, the Activity [1] was 83% and 84%, the Activity [11] was 20.6 ppm and the Activity [12] was “Active”. For the same compound, the Activity [13] was “Active”, the Activity [2] was 78% and 80% and the Activity [3] was 8% and 0%.
